Experimental findings from ChEMBL document CHEMBL4325830, “Novel Modes of Inhibition of Wild-Type Isocitrate Dehydrogenase 1 (IDH1): Direct Covalent Modification of His315” (J Med Chem, 2018) are described below.

Sequences of proteins named here, by UniProt entry; tags and fusion partners are left off.
UniProt O75874, whole entry: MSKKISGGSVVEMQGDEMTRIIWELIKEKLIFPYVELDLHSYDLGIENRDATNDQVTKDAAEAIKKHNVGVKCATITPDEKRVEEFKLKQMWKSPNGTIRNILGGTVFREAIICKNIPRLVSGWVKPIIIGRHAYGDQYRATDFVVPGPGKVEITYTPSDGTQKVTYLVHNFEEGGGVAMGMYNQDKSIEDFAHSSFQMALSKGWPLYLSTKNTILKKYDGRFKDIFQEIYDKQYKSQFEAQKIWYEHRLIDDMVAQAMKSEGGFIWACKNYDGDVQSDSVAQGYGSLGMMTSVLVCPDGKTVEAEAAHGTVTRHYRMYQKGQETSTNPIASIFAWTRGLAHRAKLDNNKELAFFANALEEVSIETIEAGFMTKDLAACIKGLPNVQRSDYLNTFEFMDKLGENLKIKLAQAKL

Structures are written as SMILES. pIC50: −log10 of the molar value.

Usually pIC50 stands for −log10 of the IC50, conventionally taken in molar units.

In the test the target is Isocitrate dehydrogenase [NADP] cytoplasmic (Homo sapiens, UniProt O75874). Briefly: Inhibition of C-terminal 8-His tagged wild type human IDH1 (1 to 414 residues) expressed in Escherichia coli BL21(DE3)-T1R preincubated for 15 mins using isocitrate as substrate in presence of NADP by diaphorase/resazurin coupled fluorescence assay. Background: Alamar Blue is a resazurin reagent that responds to reducing activity.

Turning to `C[C@@H]1CN(C(=O)c2ccc[nH]2)Cc2c(C(=O)Nc3cccc([C@@H](C)O)c3)nn(Cc3ccc(F)cc3)c21`, the pIC50 is 6.92.

For `C[C@H](O)c1cccc(NC(=O)c2nn(Cc3ccc(F)cc3)c3c2CN(C(=O)c2ccc[nH]2)C[C@H]3C)c1`, the pIC50 was 6.01.
